The list shows a part of the results, in another mix than the full data. The source made the active and inactive calls. No stated cut-off is given here; in the data, active means activation above about 7.5%; inactive means the rest.

The assay deals with Methionine sulfoxide reductase A (Bos taurus). The assay can be described thus: bovine MsrA enzyme activators, primary screen, biochemical, absorbance, HTS (AID 602163).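 Further: 0% = vehicle and 100% = reference activator.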 The settings on record: purified bovine MsrA, absorbance read-out; at 10.6 µM; hits give high values.
Regarding `O=c1[nH]c2ccccc2n1C1CCN(C(c2cccc3ccccc23)c2nnnn2C2CCCC2)CC1` (stereo not given), the activation was inactive: -4.17%.

With `CCOC(=O)N1CCC(Nc2cccc(C)c2)CC1`, the activation is inactive: -1.81%.

With `COc1cc(C(=O)NCC2(N(C)C)CCCCC2)ccc1OC(F)F`, the activation was inactive: -6.13%.

For the molecule `O=c1[nH]c2ccccc2n1C1CCN(C(c2ccccc2)c2nnnn2C2CCCCC2)CC1` (stereo not given), the activation was inactive: 0.28%.

With `CCCCOc1ccc(C(=O)NCC2(N3CCOCC3)CCCCC2)cc1`, the activation was inactive: -4.83%.

As to `CCCCn1nnnc1C(c1cc2ccccc2o1)N1CCC(n2c(=O)[nH]c3ccccc32)CC1` (stereo not given), the activation was inactive: -2.37%.

Regarding `O=P1(N(CCCl)CCCl)SCCCS1`, the activation was inactive: -2.59%.

Consider `O=C(NCC1(N2CCCCC2)CCCCC1)c1ccc(F)cc1`, for which the activation is inactive: -2.55%.

`CCOC(=O)N1CCC(Nc2ccc(F)cc2)CC1`: the activation is inactive: -3.82%.

Consider `COc1ccc(NC2CCN(CCc3ccccc3)CC2)c(OC)c1`, for which the activation is inactive: -4.02%.

With `CCOc1ccc(C)cc1CN(CCCl)CCCl`, the activation was inactive: -1.14%.

With `CC(C)(C)n1nnnc1C(c1ccccc1)N1CCC(n2c(=O)[nH]c3ccccc32)CC1` (stereo not given), the activation is inactive: -1.19%.

As to `O=C1CCN(Cc2ccccc2)CC1`, the activation was inactive: -0.78%.

On to `CCOC(=O)N1CCC(Nc2ccc(OC)cc2)CC1`, for which the activation is inactive: -3.97%.

On to `CCCCn1nnnc1C(c1ccc(OC)cc1)N1CCC(n2c(=O)[nH]c3ccccc32)CC1` (stereo not given), for which the activation is inactive: -4.46%.

As for `O=C(NCC1(N2CCCCC2)CCCCC1)c1ccc(Cl)s1`, the activation is inactive: -0.59%.

With `N#CC1(Nc2ccccc2)CCN(Cc2ccccc2)CC1`, the activation was inactive: -3.09%.

Turning to `O=c1[nH]c2ccccc2n1C1CCN(C(c2cc3ccccc3o2)c2nnnn2C2CCCCC2)CC1` (stereo not given), the activation is inactive: 0.09%.

Regarding `O=C(OC1CN2CCC1CC2)C1c2ccccc2Oc2ccccc21` (stereo not given), the activation was inactive: -2.84%.

Consider `COc1ccc(Cl)cc1C(=O)NCC1(N2CCOCC2)CCCCC1`, for which the activation is inactive: -3.15%.

Regarding `O=C(NCC1(N2CCOCC2)CCCCC1)c1cc2ccccc2o1`, the activation was inactive: -0.55%.

On to `O=C(NCC1(N2CCCCC2)CCCCC1)c1ccc(Cl)nc1`, for which the activation is inactive: -0.32%.

In the case of `O=c1[nH]c2ccccc2n1C1CCN(C(c2ccccc2OC(F)(F)F)c2nnnn2C2CCCCC2)CC1` (stereo not given), the activation was inactive: 1.23%.

On to `Cc1cc(C)cc(N(C(=O)c2ccccc2)C2CCN(C(=O)OC(C)(C)C)CC2)c1`, for which the activation was inactive: -3.42%.

Take `CSc1ccccc1C(=O)NCC1(N2CCCCC2)CCCCC1`: the activation is inactive: -4.31%.

`Cc1cccc(NC2(C#N)CCN(Cc3ccccc3)CC2)c1`: the activation was inactive: -1.75%.

`O=C(NCC1(N2CCCCC2)CCCCC1)c1ccc(=O)[nH]c1`: the activation was inactive: -0.36%.

In the case of `CCCCn1nnnc1C(CC)N1CCC(n2c(=O)[nH]c3ccccc32)CC1` (stereo not given), the activation was inactive: -1.99%.

Regarding `O=C(NCC1(N2CCCCC2)CCCCC1)c1cccs1`, the activation was inactive: -10.4%.

In the case of `CCCCn1nnnc1C(c1cccs1)N1CCC(n2c(=O)[nH]c3ccccc32)CC1` (stereo not given), the activation was inactive: -11.9%.

Take `COc1ccc(C(=O)NCC2(N3CCCCC3)CCCCC2)cc1`: the activation was inactive: -3.19%.

In the case of `COc1ccc(C(=O)NCC2(N3CCCCC3)CCCCC2)c(OC)c1OC`, the activation is inactive: -8.64%.

Take `CC(C)(C)OC(=O)N1CCC(N(C(=O)c2ccccc2)c2ccc(F)cc2)CC1`: the activation is inactive: -2.12%.

As to `CCC(c1nnnn1C1CCCC1)N1CCC(n2c(=O)[nH]c3ccccc32)CC1` (stereo not given), the activation was inactive: 0.38%.

`Cc1ccc(C(=O)NCC2(N(C)C)CCCCC2)o1`: the activation was inactive: 0.61%.

For `CCCOc1ccc(C(=O)NCC2(N(C)C)CCCCC2)cc1OC`, the activation is inactive: -2.64%.

As for `COc1ccc(C(c2nnnn2C2CCCC2)N2CCC(n3c(=O)[nH]c4ccccc43)CC2)cc1` (stereo not given), the activation is inactive: -2.53%.

With `CN1CCC(Nc2cccc(F)c2)CC1`, the activation was inactive: 1.87%.

Regarding `O=C(NCC1(N2CCCCC2)CCCCC1)c1cncc(Br)c1`, the activation was inactive: -0.73%.

For the molecule `CCCCn1nnnc1C(c1ccnc2ccccc12)N1CCC(n2c(=O)[nH]c3ccccc32)CC1` (stereo not given), the activation is inactive: -1.1%.

For `COc1cc(OC)c(C(=O)NCC2(N(C)C)CCCCC2)cc1OC`, the activation was inactive: -4.31%.

In the case of `CCC(c1nnnn1C(C)(C)C)N1CCC(n2c(=O)[nH]c3ccccc32)CC1` (stereo not given), the activation is inactive: -2.18%.

With `O=C(NCC1(N2CCOCC2)CCCCC1)c1cc(F)c(F)cc1Cl`, the activation is inactive: -3.03%.

On to `COc1ccc(CN(CCCl)CCCl)cc1Cl`, for which the activation is inactive: 5.09%.

As for `CN(C)c1cccc(C(=O)NCC2(N3CCCCC3)CCCCC2)c1`, the activation is inactive: 0.7%.

For `CCCCn1nnnc1C(c1ccccc1OC(F)(F)F)N1CCC(n2c(=O)[nH]c3ccccc32)CC1` (stereo not given), the activation was inactive: 1.42%.

On to `CC(C)c1ccc(NC2CCN(C(=O)OC(C)(C)C)CC2)cc1`, for which the activation is inactive: -0.91%.

In the case of `COc1ccc(NC2CCN(C(=O)OC(C)(C)C)CC2)cc1`, the activation was inactive: -3.16%.

Regarding `CC(C)c1ccc(C(=O)NCC2(N3CCOCC3)CCCCC2)cc1`, the activation was inactive: -0.18%.

With `CN1CCN(CCOC(=O)C(O)(c2ccccc2)c2ccccc2)CC1`, the activation was inactive: -3.93%.

`CCCCn1nnnc1C(c1cccc2ccccc12)N1CCC(n2c(=O)[nH]c3ccccc32)CC1` (stereo not given): the activation is inactive: -0.66%.

On to `O=C(NCC1(N2CCOCC2)CCCCC1)c1cc(=O)[nH]c2ccccc12`, for which the activation was inactive: -2.52%.

Take `COc1cc(C(=O)NCC2(N3CCCCC3)CCCCC2)ccc1OC(F)F`: the activation is inactive: -1.9%.

Turning to `O=C(NCC1(N2CCCCC2)CCCCC1)c1cccc(C(F)(F)F)c1`, the activation was inactive: -1.1%.

For the molecule `O=C(NCC1(N2CCCCC2)CCCCC1)c1cccc([N+](=O)[O-])c1`, the activation was inactive: -3.79%.

Regarding `CSc1ccc(C(=O)NCC2(N3CCOCC3)CCCCC2)cc1`, the activation is inactive: -5.46%.

Take `CCN1CCC(Nc2ccc(Cl)cc2)CC1`: the activation is inactive: 2.79%.

For `O=c1[nH]c2ccccc2n1C1CCN(C(c2ccccc2OC(F)(F)F)c2nnnn2C2CCCC2)CC1` (stereo not given), the activation was inactive: 0.57%.

As for `N#CC1(Nc2ccccc2)CCN(CCc2ccccc2)CC1`, the activation is inactive: 1.03%.

For the molecule `CC(C)(C)n1nnnc1C(c1ccccc1OC(F)(F)F)N1CCC(n2c(=O)[nH]c3ccccc32)CC1` (stereo not given), the activation was inactive: -5.22%.

Source of the values: PubChem BioAssay AID602163 (The Scripps Research Institute Molecular Screening Center, 2012).
